## Binding of CDR-mutated scFvs to a peptide of the spike HR2 region

The measurements come from Li et al. 2023 (doi:10.1038/s41467-023-39022-2) through the FLAb antibody collection.

Binding partner: SARS-CoV-2 spike HR2 peptide, sequence PDVDLGDISGINAS.

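The variants were designed computationally from a first round of random CDR variants and then made and measured. Their group label is 14L_GP_Gibbs (GP: Gaussian process model; Gibbs: Gibbs sampling; a sequence that several methods proposed may carry one label only). The assay is AlphaSeq: two haploid yeast populations carry antibody and antigen on their surface. Mating (16 h, 30 °C) was followed by selection of diploids and sequencing of their barcodes. Read counts were normalised to the haploid input and turned into Kd by a linear fit to BCL2-family pairs of known affinity, for each replicate. The assay was run in six technical replicates.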

Parent scFv Ab-14: VH joined to VL by the linker GGGGSGGGGSGGGGS. Changes lie in the light chain CDRs alone.
VH: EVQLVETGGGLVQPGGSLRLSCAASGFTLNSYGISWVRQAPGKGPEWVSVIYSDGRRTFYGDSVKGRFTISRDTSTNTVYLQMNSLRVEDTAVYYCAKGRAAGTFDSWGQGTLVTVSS
VL: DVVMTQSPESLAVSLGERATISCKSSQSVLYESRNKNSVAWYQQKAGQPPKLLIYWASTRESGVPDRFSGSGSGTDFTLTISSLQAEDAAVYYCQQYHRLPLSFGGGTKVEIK

Substitutions are numbered in sequence along the VL above, starting at 1 (not Kabat).
Numbers give log10(Kd / nM), so 0 is 1 nM and 3 is 1 µM. Smaller is tighter.
The range of this assay differs from that of the first round, and the authors advise against merging the two.

{"changes": "S25V Q27F L30M Y31L S38A W56S Q96D", "replicates, log10 nM": "0.24 / 0.21 / 0.23 / 0.16 / 0.15 / 0.32", "signal with controls": "0/18"}
{"changes": "S25L Q27A V29Q N35V K36S S38A W56N E61M S62M", "replicates, log10 nM": "-0.12 / -0.13 / -0.30 / -0.40 / -0.27 / 0.13", "signal with controls": "2/18 (3.17)"}
{"changes": "S25L V29G E32G S33E N37M W56Q T59Q", "replicates, log10 nM": "0.27 / 0.40 / 0.22 / -0.33 / 0.25 / 0.08", "signal with controls": "0/18"}
{"changes": "S25L S26R Q27L V29Q L30E N35Q W56N E61C", "replicates, log10 nM": "0.18 / 0.00 / 0.00 / -0.04 / 0.15 / 0.31", "signal with controls": "1/18 (2.25)"}
{"changes": "S26P V29H L30D E32G W56N T59E", "replicates, log10 nM": "0.16 / 0.19 / 0.25 / 0.01 / -0.01 / 0.06", "signal with controls": "2/18 (2.23)"}
{"changes": "S25Y S28Q V29M S38N W56E", "replicates, log10 nM": "0.00 / -0.21 / -0.28 / -0.32 / -0.33 / -0.05", "signal with controls": "0/18"}
{"changes": "S25L S26E V29W E32G W56N T59E S62R", "replicates, log10 nM": "-0.32 / -0.29 / -0.66 / -0.49 / -0.45 / -0.17", "signal with controls": "0/18"}
{"changes": "S25L S26D Q27M S28W V29E L30W E32G W56S E61C", "replicates, log10 nM": "0.09 / -0.06 / -0.02 / -0.24 / -0.06 / 0.03", "signal with controls": "0/18"}
{"changes": "S25L S26M S28G L30D Y31M W56N T59M S62D", "replicates, log10 nM": "0.51 / 0.55 / 0.19 / 0.07 / 0.26 / 0.57", "signal with controls": "1/18 (2.49)"}
{"changes": "S25L Q27G V29M S33E K36S W56H T59H", "replicates, log10 nM": "0.52 / 0.46 / 0.12 / 0.20 / 0.18 / 0.35", "signal with controls": "0/18"}
{"changes": "S25Y Q27F V29D Y31N W56E", "replicates, log10 nM": "0.29 / 0.53 / 0.06 / -0.03 / 0.28 / 0.62", "signal with controls": "0/18"}
{"changes": "S25V Q27I S28L V29D L30D Y31G E32G S33D W56H", "replicates, log10 nM": "0.23 / 0.28 / 0.45 / 0.06 / 0.13 / 0.39", "signal with controls": "0/18"}
{"changes": "S25V Q27T V29Q L30E S33D W56H E61L S62Q", "replicates, log10 nM": "0.02 / -0.07 / -0.21 / -0.24 / -0.16 / -0.02", "signal with controls": "0/18"}
{"changes": "S25L Q27Y L30P Y31G W56D S58G", "replicates, log10 nM": "-0.16 / -0.23 / -0.36 / -0.47 / -0.33 / -0.14", "signal with controls": "6/18 (3.46)"}
{"changes": "S25W Y31G S33E N37M W56N", "replicates, log10 nM": "0.02 / 0.09 / -0.18 / -0.23 / 0.07 / 0.03", "signal with controls": "0/18"}
{"changes": "Q27N V29T R34G N35M W56N T59K E61M", "replicates, log10 nM": "2.49 / 1.56 / 2.80 / 1.62 / 2.30 / 2.49", "signal with controls": "0/18"}
{"changes": "K24A S25L V29Q L30G Y31G K36P W56H", "replicates, log10 nM": "-0.29 / -0.40 / -0.52 / -0.63 / -0.61 / -0.27", "signal with controls": "1/18 (2.36)"}
{"changes": "S25L S26R Q27F L30M Y31E W56S S62W", "replicates, log10 nM": "0.28 / 0.20 / 0.23 / 0.10 / 0.11 / 0.21", "signal with controls": "2/18 (3.17)"}
{"changes": "S25V Q27G V29D Y31L E32W N35T K36A S38Q W56E", "replicates, log10 nM": "0.43 / 0.47 / 0.42 / 0.49 / 0.34 / 0.66", "signal with controls": "2/18 (2.20)"}
{"changes": "S25C S26Q V29Q L30D S38A W56N T59Q S62D", "replicates, log10 nM": "0.33 / 0.18 / 0.14 / -0.10 / 0.19 / 0.16", "signal with controls": "0/18"}
{"changes": "S25L S26H N35H K36A S38N W56N T59Q", "replicates, log10 nM": "0.07 / 0.03 / 0.09 / -0.21 / -0.04 / -0.06", "signal with controls": "1/18 (1.95)"}
{"changes": "S25V S28L V29D L30D Y31G E32G W56H S58H", "replicates, log10 nM": "0.77 / 0.54 / 0.46 / 0.47 / 0.49 / 0.82", "signal with controls": "1/18 (3.35)"}
{"changes": "S25L L30D E32Q S38N W56N S58Q E61M", "replicates, log10 nM": "-0.19 / -0.50 / -0.27 / -0.52 / -0.54 / -0.26", "signal with controls": "2/18 (2.77)"}
{"changes": "S25W L30D W56N A57G S62A", "replicates, log10 nM": "0.44 / 0.43 / -0.05 / -0.07 / 0.50 / 0.39", "signal with controls": "0/18"}

The last 3 entries again:

changes,"replicates, log10 nM",signal with controls
S25V S28L V29D L30D Y31G E32G W56H S58H,0.77 / 0.54 / 0.46 / 0.47 / 0.49 / 0.82,1/18 (3.35)
S25L L30D E32Q S38N W56N S58Q E61M,-0.19 / -0.50 / -0.27 / -0.52 / -0.54 / -0.26,2/18 (2.77)
S25W L30D W56N A57G S62A,0.44 / 0.43 / -0.05 / -0.07 / 0.50 / 0.39,0/18

The parent sequence was in this pool as ten entries: three were never detected, three once, and four in most replicates, with averages from 0.34 to 2.37.
Nonspecific signal, from three strains lacking the peptide, appeared in 4% of pairings of all light chain designs, centred on 2.64 (5% of these signals below 1.59); values are not corrected for it. For each scFv, signals with the empty controls are counted beside the result, with their mean in brackets.
In the paper, a design with two or fewer of six values counts as a poor binder.